Test results taken from PubChem BioAssay AID1745844 (Carcinogenic Potency Database (CPDB), 2022).
Activity calls are given as the source filed them. The rule behind the calls is not given here.

Test system: rodent lifetime carcinogenesis bioassay, tumor incidence TD50
Assay: carcinogenic potency in animals, long-term in vivo studies, CPDB compilation (AID 1745844)

Compound: C[As](=O)(O)O
- TD50 (mouse, strain B6C3F1, females, in feed, site: liver, lesion: hepatocellular adenoma, dosed 104 weeks, study length 104 weeks): inactive: 751 mg/kg/day
- carcinogen call (mouse, strain B6C3F1, females, in feed, site: liver, lesion: hepatocellular carcinoma, dosed 104 weeks, study length 104 weeks): inactive: negative
- TD50 (mouse, strain B6C3F1, females, in feed, site: lung, lesion: alveolar/bronchiolar adenoma, dosed 104 weeks, study length 104 weeks): inactive: 2190 mg/kg/day
- carcinogen call (mouse, strain B6C3F1, females, in feed, site: lung, lesion: alveolar/bronchiolar carcinoma, dosed 104 weeks, study length 104 weeks): inactive: negative
- carcinogen call (mouse, strain B6C3F1, males, in feed, site: liver, lesion: hepatocellular adenoma, dosed 104 weeks, study length 104 weeks): inactive: negative
- carcinogen call (mouse, strain B6C3F1, males, in feed, site: liver, lesion: hepatocellular carcinoma, dosed 104 weeks, study length 104 weeks): inactive: negative
- TD50 (mouse, strain B6C3F1, males, in feed, site: lung, lesion: alveolar/bronchiolar adenoma, dosed 104 weeks, study length 104 weeks): inactive: 1360 mg/kg/day
- carcinogen call (mouse, strain B6C3F1, males, in feed, site: lung, lesion: alveolar/bronchiolar carcinoma, dosed 104 weeks, study length 104 weeks): inactive: negative
- TD50 (rat, strain F344/DuCrj, males, in drinking water, site: any site (literature study), lesion: several types, types named in the paper, dosed 104 weeks, study length 104 weeks): inactive: 5.91 mg/kg/day
- TD50 (rat, strain F344/DuCrj, males, in drinking water, site: liver, lesion: hepatocellular adenoma, dosed 104 weeks, study length 104 weeks): inactive: 72.4 mg/kg/day
- TD50 (rat, strain F344/DuCrj, males, in drinking water, site: testis, lesion: interstitial-cell tumor, dosed 104 weeks, study length 104 weeks): inactive: 3.36 mg/kg/day
- carcinogen call (rat, strain F344/DuCrj, males, in drinking water, site: urinary bladder, lesion: transitional-cell carcinoma, dosed 104 weeks, study length 104 weeks): inactive: negative
- carcinogen call (rat, strain Fischer 344, females, in feed, site: liver, lesion: one or several types, types not named, dosed 104 weeks, study length 104 weeks): inactive: negative
- TD50 (rat, strain Fischer 344, males, in feed, site: all sites, lesion: mononuclear-cell leukemia, dosed 104 weeks, study length 104 weeks): inactive: 139 mg/kg/day
- carcinogen call (rat, strain Fischer 344, males, in feed, site: liver, lesion: hepatocellular carcinoma, dosed 104 weeks, study length 104 weeks): inactive: negative

Compound: NC(=O)Nc1ccc([As](=O)(O)O)cc1
- TD50 (rat, strain FDRL, females, in feed, site: all sites, lesion: lymphatic leukemia, dosed 93 weeks, study length 104 weeks): inactive: 4590 mg/kg/day
- TD50 (rat, strain FDRL, males, in feed, site: thymus gland, lesion: reticulum-cell sarcoma, dosed 93 weeks, study length 104 weeks): inactive: 4500 mg/kg/day

Compound: OCCN(CCO)CCO
- TD50 (mouse, strain B6C3F1, females, in drinking water, site: any site (literature study), lesion: one or several types, types not named, dosed 82 weeks, study length 82 weeks): inactive: 63500 mg/kg/day
- TD50 (mouse, strain B6C3F1, females, in drinking water, site: liver, lesion: hemangioma, dosed 82 weeks, study length 82 weeks): inactive: 42000 mg/kg/day
- carcinogen call (mouse, strain B6C3F1, females, in drinking water, site: lung, lesion: adenoma, dosed 82 weeks, study length 82 weeks): inactive: negative
- TD50 (mouse, strain B6C3F1, males, in drinking water, site: any site (literature study), lesion: one or several types, types not named, dosed 82 weeks, study length 82 weeks): inactive: 74700 mg/kg/day
- carcinogen call (mouse, strain B6C3F1, males, in drinking water, site: liver, lesion: hepatocellular carcinoma, dosed 82 weeks, study length 82 weeks): inactive: negative
- carcinogen call (mouse, strain B6C3F1, males, in drinking water, site: lung, lesion: adenocarcinoma, dosed 82 weeks, study length 82 weeks): inactive: negative
- carcinogen call (mouse, strain B6C3F1, males, in drinking water, site: lung, lesion: adenoma, dosed 82 weeks, study length 82 weeks): inactive: negative
- TD50 (mouse, strain ICR/Jcl, females, in feed, site: all sites, lesion: several types, types named in the paper, dosed 106 weeks, study length 108 weeks): 1290 mg/kg/day
- TD50 (mouse, strain ICR/Jcl, females, in feed, site: any site (literature study), lesion: malignant tumor, dosed 106 weeks, study length 108 weeks): 100 mg/kg/day
- TD50 (mouse, strain ICR/Jcl, females, in feed, site: any site (literature study), lesion: several types, types named in the paper, dosed 106 weeks, study length 108 weeks): 88.8 mg/kg/day
- carcinogen call (mouse, strain ICR/Jcl, males, in feed, site: any site (literature study), lesion: malignant tumor, dosed 110 weeks, study length 117 weeks): positive
- carcinogen call (rat, strain F344/DuCrj, females, in drinking water, site: any site (literature study), lesion: several types, types named in the paper, dosed 104 weeks, study length 113 weeks): inactive: negative
- TD50 (rat, strain F344/DuCrj, females, in drinking water, site: liver, lesion: neoplastic nodule, dosed 104 weeks, study length 113 weeks): inactive: 47000 mg/kg/day
- carcinogen call (rat, strain F344/DuCrj, males, in drinking water, site: any site (literature study), lesion: several types, types named in the paper, dosed 104 weeks, study length 113 weeks): inactive: negative
- TD50 (rat, strain F344/DuCrj, males, in drinking water, site: liver, lesion: hepatocellular carcinoma, dosed 104 weeks, study length 113 weeks): inactive: 53600 mg/kg/day
- TD50 (rat, strain F344/DuCrj, males, in drinking water, site: liver, lesion: neoplastic nodule, dosed 104 weeks, study length 113 weeks): inactive: 9590 mg/kg/day

Compound: O[C@@H]([C@H](O)[C@H](O)CNCCCl)[C@H](O)CNCCCl
- TD50 (rat, strain BR 46, males, i.v., site: any site (literature study), lesion: benign tumor, dosed 52 weeks, study length 104 weeks): 23.5 mg/kg/day
- TD50 (rat, strain BR 46, males, i.v., site: any site (literature study), lesion: malignant tumor, dosed 52 weeks, study length 104 weeks): 3.85 mg/kg/day
- TD50 (rat, strain BR 46, males, i.v., site: any site (literature study), lesion: several types, types named in the paper, dosed 52 weeks, study length 104 weeks): 3.11 mg/kg/day

Compound: COP(=S)(OC)SCCNC(C)=O
- carcinogen call (rat, strain Sprague-Dawley, females, in feed, site: liver, lesion: one or several types, types not named, dosed 104 weeks, study length 104 weeks): inactive: negative
- carcinogen call (rat, strain Sprague-Dawley, males, in feed, site: liver, lesion: one or several types, types not named, dosed 104 weeks, study length 104 weeks): inactive: negative

Compound: CCN=C(N)N(N=O)[N+](=O)[O-]
- TD50 (mouse, strain CBA/H-T6, both sexes, in drinking water, site: any site (literature study), lesion: several types, types named in the paper, dosed 43 weeks, study length 69 weeks): 284 mg/kg/day
- TD50 (mouse, strain CBA/H-T6, both sexes, in drinking water, site: duodenum, lesion: adenocarcinoma, dosed 43 weeks, study length 69 weeks): 4.2 mg/kg/day
- TD50 (mouse, strain CBA/H-T6, both sexes, in drinking water, site: duodenum, lesion: several types, types named in the paper, dosed 43 weeks, study length 69 weeks): 2.84 mg/kg/day
- TD50 (mouse, strain CBA/H-T6, both sexes, in drinking water, site: esophagus, lesion: several types, types named in the paper, dosed 43 weeks, study length 69 weeks): 3.85 mg/kg/day
- TD50 (mouse, strain CBA/H-T6, both sexes, in drinking water, site: esophagus, lesion: squamous-cell carcinoma, dosed 43 weeks, study length 69 weeks): 5.6 mg/kg/day
- TD50 (mouse, strain CBA/H-T6, both sexes, in drinking water, site: liver, lesion: hemangioendothelial sarcoma, dosed 43 weeks, study length 69 weeks): 70.3 mg/kg/day
- TD50 (mouse, strain CBA/H-T6, both sexes, in drinking water, site: stomach, lesion: several types, types named in the paper, dosed 43 weeks, study length 69 weeks): 8.03 mg/kg/day
